Legend:
AGP = details: calibration set; equilibrium dialysis; literature; cited from earlier work
[1] = Phospholipid binding at pH 7.4 on IAM PC.DD2 HPLC column; details: for CHI IAM: pH 7.4; for log k IAM: pH 7.4, derived from CHI IAM by equation 1
[2] = CHI lipophilicity by gradient reversed-phase HPLC (Gemini NX-C-18); details: for chromatographic logD: Gemini NX-C-18 reversed-phase HPLC column, pH 7.4; for chromatographic logP: reversed-phase HPLC, Gemini NX-C-18 column (50 x 3 mm, 5 µm)
[3] = target: human serum albumin (HSA) (Homo sapiens, UniProt P02768); details: pH 7.4, Chiralpak HSA
hERG channel = details: cited from earlier work

By UniProt entry, the sequences of proteins in these tests, tags left out. Residues count along the entry.
UniProt P02768, 25-609: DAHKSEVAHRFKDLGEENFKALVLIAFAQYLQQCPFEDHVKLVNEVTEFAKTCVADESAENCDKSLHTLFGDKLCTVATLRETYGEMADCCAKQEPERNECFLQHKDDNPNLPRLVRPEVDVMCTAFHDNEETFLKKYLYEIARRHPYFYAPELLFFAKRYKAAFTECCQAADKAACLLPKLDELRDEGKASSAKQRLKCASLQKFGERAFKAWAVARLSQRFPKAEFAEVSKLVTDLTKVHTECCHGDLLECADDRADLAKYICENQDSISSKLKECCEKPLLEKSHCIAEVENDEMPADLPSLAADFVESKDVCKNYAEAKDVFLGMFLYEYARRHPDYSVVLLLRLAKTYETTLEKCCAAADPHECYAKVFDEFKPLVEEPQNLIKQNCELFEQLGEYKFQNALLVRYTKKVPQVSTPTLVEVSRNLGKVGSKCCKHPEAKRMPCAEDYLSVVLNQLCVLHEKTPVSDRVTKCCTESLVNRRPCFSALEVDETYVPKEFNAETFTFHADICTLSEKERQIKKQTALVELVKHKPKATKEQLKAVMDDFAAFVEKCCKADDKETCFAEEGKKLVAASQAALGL

Compound | CHI IAM [1] | log k IAM [1] | chromatographic logD [2] | chromatographic logP [2] | further results
O=C(O)Cc1ccccc1Nc1c(Cl)cccc1Cl [Diclofenac] |  |  |  |  | % AGP (AGP): 60.0%
OCCOCCN1CCN(C2=Nc3ccccc3Sc3ccccc32)CC1 [Quetiapine] | 39.38 | 2.23 |  |  | 
Cc1nc2n(c(=O)c1CCN1CCC(c3noc4cc(F)ccc34)CC1)CCCC2 [Risperidone] |  |  | 1.46 | 2.18 | 
CCOC(=O)C1=C(C)NC(C)=C(C(=O)OC)C1c1cccc([N+](=O)[O-])c1 (stereo not drawn) [Nitrendipine] | 39.36 | 2.23 |  |  | 
O=C(CCCN1CC=C(n2c(=O)[nH]c3ccccc32)CC1)c1ccc(F)cc1 [Droperidol] |  | 2.23 |  |  | 
Cc1cc2c(s1)Nc1ccccc1N=C2N1CCN(C)CC1 [Olanzapine] |  |  | 1.96 | 2.76 | log k HSA [3]: 0.76; hERG pIC50 (hERG channel): 5.06

From PMC8920097, “Prediction of hERG inhibition of drug discovery compounds using biomimetic HPLC measurements” (ADMET & DMPK, 2021)
